These results are taken from ChEMBL document CHEMBL3352706, “Novel cyclic biphalin analogue with improved antinociceptive properties” (2014).

By UniProt entry, the sequences of proteins in these tests, tags left out. Where a name states a change or a piece, a line headed by the entry shows the natural chain unless it says otherwise.
UniProt P33535, whole entry, looked up: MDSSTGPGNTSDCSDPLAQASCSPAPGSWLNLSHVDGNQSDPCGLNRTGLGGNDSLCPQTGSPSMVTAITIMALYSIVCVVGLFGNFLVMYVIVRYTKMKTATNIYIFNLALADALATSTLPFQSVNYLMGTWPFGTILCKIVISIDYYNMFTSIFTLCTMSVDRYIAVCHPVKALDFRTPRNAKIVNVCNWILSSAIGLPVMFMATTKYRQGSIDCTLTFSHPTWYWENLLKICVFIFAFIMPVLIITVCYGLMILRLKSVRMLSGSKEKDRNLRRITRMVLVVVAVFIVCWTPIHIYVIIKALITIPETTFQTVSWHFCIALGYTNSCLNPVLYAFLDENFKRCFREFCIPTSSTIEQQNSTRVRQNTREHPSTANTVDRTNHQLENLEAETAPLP
UniProt P32300, whole entry, looked up: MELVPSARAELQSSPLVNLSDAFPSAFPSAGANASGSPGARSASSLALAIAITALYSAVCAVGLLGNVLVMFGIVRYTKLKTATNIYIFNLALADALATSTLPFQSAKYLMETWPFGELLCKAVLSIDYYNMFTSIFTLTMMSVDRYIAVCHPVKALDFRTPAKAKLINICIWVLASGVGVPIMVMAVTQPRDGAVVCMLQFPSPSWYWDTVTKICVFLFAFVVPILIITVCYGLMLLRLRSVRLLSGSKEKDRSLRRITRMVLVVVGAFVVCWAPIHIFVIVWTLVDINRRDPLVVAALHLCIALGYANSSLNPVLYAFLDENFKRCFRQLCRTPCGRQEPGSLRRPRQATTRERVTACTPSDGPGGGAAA
UniProt P34975: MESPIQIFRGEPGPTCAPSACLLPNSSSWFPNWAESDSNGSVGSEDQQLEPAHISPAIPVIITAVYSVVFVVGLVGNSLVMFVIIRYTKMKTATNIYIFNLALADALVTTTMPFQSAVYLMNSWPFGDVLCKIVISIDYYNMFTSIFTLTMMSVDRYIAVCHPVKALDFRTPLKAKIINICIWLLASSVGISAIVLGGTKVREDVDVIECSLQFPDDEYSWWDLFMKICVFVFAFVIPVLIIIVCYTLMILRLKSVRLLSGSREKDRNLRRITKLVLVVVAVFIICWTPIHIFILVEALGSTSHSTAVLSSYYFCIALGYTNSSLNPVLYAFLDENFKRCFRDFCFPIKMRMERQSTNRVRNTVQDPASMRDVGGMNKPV
UniProt P97266, whole entry, looked up: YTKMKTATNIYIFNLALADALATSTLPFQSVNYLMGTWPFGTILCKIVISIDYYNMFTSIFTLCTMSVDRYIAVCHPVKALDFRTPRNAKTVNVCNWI
UniProt P33533, whole entry, looked up: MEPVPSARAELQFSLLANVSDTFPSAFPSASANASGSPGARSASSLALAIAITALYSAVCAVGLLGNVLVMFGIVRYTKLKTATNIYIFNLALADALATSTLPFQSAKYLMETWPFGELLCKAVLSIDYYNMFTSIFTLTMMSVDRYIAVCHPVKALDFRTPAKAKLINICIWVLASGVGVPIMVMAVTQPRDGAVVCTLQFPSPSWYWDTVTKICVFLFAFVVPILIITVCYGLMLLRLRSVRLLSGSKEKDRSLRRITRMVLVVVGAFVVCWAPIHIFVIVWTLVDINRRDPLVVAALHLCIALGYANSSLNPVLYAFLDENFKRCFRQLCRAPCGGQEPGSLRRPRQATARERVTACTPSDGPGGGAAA

Test [1] addresses T1, Mu-type opioid receptor (Rattus norvegicus, UniProt P33535). As to the kind of experiment: Displacement of [3H]DAMGO from mu opioid receptor in Wistar rat brain membranes by liquid scintillation counting based competition binding assay. The following applies: strain Wistar.
The test system of test [2] is Mus musculus. The experiment in a line: Antinociceptive activity in CD1 mouse assessed as time required for maximal reduction in thermal nociception by at 0.1 nmol, icv by hot plate test.
The subject of test [3] is Mus musculus. As to the kind of experiment: Antinociceptive activity in CD1 mouse assessed as time required for maximal reduction in thermal nociception by measuring tail-flick latency at 0.1 nmol, icv by tail-flick assay. The following applies: strain CD1, Tail.
Test [4] has as its system Mus musculus. As to the kind of experiment: Antinociceptive activity in CD1 mouse assessed as reduction in thermal nociception by measuring tail-flick latency at 0.1 nmol, icv measured 15 mins post dose by tail-flick assay. The following applies: strain CD1, Tail.
Test [5] has as its target T1, Mu-type opioid receptor. As to the kind of experiment: Agonist activity at rat mu opioid receptor expressed in CHO cells by [35S]GTPgammaS binding assay.
Test [6] has as its target T2, Delta-type opioid receptor (Mus musculus, UniProt P32300). As to the kind of experiment: Agonist activity at delta opioid receptor in mouse vas deferens assessed as inhibition of electrically-induced smooth muscle contraction.
In test [7] the test system is Mus musculus. The experiment in a line: Antinociceptive activity in CD1 mouse assessed as reduction in thermal nociception by at 0.1 nmol, icv measured 15 mins post dose by hot plate test.
In test [8] the target is T3, Kappa-type opioid receptor (Rattus norvegicus, UniProt P34975). The experiment in a line: Displacement of [3H]U69593 from kappa opioid receptor in Wistar rat brain membranes by liquid scintillation counting based competition binding assay. The conditions noted are these: strain Wistar.
For test [9], the target named is Mu-type opioid receptor (Cavia porcellus, UniProt P97266). As to the kind of experiment: Agonist activity at mu opioid receptor in Hartley guinea pig ileum longitudinal muscle myenteric plexus assessed as inhibition of electrically-induced smooth muscle contraction. The conditions noted are these: strain Hartley.
The target in test [10] is Delta-type opioid receptor (Rattus norvegicus, UniProt P33533). The experiment in a line: Displacement of [3H]Ile5,6deltorphin II from delta opioid receptor in Wistar rat brain membranes by liquid scintillation counting based competition binding assay. The conditions noted are these: strain Wistar.
Test [11] deals with T3, Kappa-type opioid receptor. As to the kind of experiment: Agonist activity at rat kappa opioid receptor expressed in CHO cells by [35S]GTPgammaS binding assay.
Test [12] concerns the target T2, Delta-type opioid receptor. The experiment in a line: Agonist activity at mouse delta opioid receptor expressed in CHO cells by [35S]GTPgammaS binding assay.

Structures are written as SMILES.

Consider `CC1(C)SSC(C)(C)[C@@H](NC(=O)[C@@H](N)Cc2ccc(O)cc2)C(=O)NCC(=O)N[C@@H](Cc2ccccc2)C(=O)NNC(=O)[C@H](Cc2ccccc2)NC(=O)CNC(=O)[C@@H]1NC(=O)[C@@H](N)Cc1ccc(O)cc1`, for which the figures for the Ki (on Mu-type opioid receptor [1]; in [8]; in test [10]) were 1.9 nM, 258 nM and 5.2 nM, respectively. Besides, the Time in the test with Mus musculus [2] and in the test on Mus musculus [3] was 15 min each time. Besides, the MPE in the test on Mus musculus [4] and in the test on Mus musculus [7] was 95% throughout. Further, the EC50 came out at 76.2 nM at Mu-type opioid receptor [5], 480 nM in test [11] and 7.1 nM in [12]. The 50% inhibitory concentration (IC50) in test [6] was found to be 7.2 nM; on Mu-type opioid receptor [9], 21 nM.
On to `C[C@@H](NC(=O)[C@@H](N)Cc1ccc(O)cc1)C(=O)NCC(=O)N[C@@H](Cc1ccccc1)C(=O)NNC(=O)[C@H](Cc1ccccc1)NC(=O)CNC(=O)[C@@H](C)NC(=O)[C@@H](N)Cc1ccc(O)cc1`, for which the Ki in [8] was found to be 283 nM. For the same compound, the EC50 entry in test [11] is “Not Active”.
On to `CC1(C)SSC(C)(C)[C@H](NC(=O)[C@@H](N)Cc2ccc(O)cc2)C(=O)NCC(=O)N[C@@H](Cc2ccccc2)C(=O)NNC(=O)[C@H](Cc2ccccc2)NC(=O)CNC(=O)[C@H]1NC(=O)[C@@H](N)Cc1ccc(O)cc1`, for which the Ki result (on Mu-type opioid receptor [1]; in [8]; in [10]) was “Not Active” throughout. The EC50 at Mu-type opioid receptor [5] is 230 nM; in [11] it was 205 nM; in test [12], 360 nM.
